As a reminder, the IC50 is the concentration that gives 50% inhibition.

We go through 38 substances from patent US20240018189A1 (Protagonist Therapeutics, Inc., priority 2020, published 2024).

Data set [1] is described as follows: Stability in simulated gastric fluid (SGF with pepsin). It is filed as in vitro ADME. As to conditions: 20 μM, SGF with pepsin pH 1.2, 37° C. As to the method: Blank SGF was prepared by adding 2 g sodium chloride, 7 mL hydrochloric acid (37%) in a final volume of 1 L water, and adjusted pH to 1.2.
SGF was prepared by dissolving 320 mg Pepsin (Sigma®, P6887, from Porcine Stomach Mucosa) in 100 mL Blank SGF and stirred at room temperature for 30 minutes. The solution was filtered through 0.45 μm membrane and aliquot and stored at −20° C.
(§1) Experimental compounds of interest (at a concentration of 20 μM) were incubated with pre-warmed SGF at 37° C. Aliquots were taken at various time points up to 24 hours (e.g., 0, 0.25, 1, 3, 6 and 24 hr), and immediately quenched with 4 volumes of organic solvent (acetonitrile/methanol (1:1) and 0.1% formic acid, containing 1 μM internal standard). Quenched samples were stored at 4° C. until the end of the experiment and centrifuged at 4,000 rpm for 10 minutes. The supernatant were diluted 1:1 with deionized water and analyzed using LC-MS. Percentage remaining at each time point was calculated based on the peak area ratio (analyte over internal standard) relative to the initial level at time zero. Half-lives were calculated by fitting to a first-order exponential decay equation using GraphPad.

The nature of data set [2]: Stability in simulated intestinal fluid (FaSSIF with pancreatin). As to conditions: 20 μM, FaSSIF 1% pancreatin, 37° C. It is filed as in vitro ADME. How it is done: FaSSIF was prepared by dissolving 1.2 g porcine pancreatin (Chem-supply, PL378) in 100 mL Blank FaSSIF and stirred at room temperature for 30 minutes. The solution was filtered through 0.45 μm membrane and aliquot and stored at −20° C.
as §1, with “(20” for “(at a concentration of 20”, “FaSSIF (1% pancreatin in final incubation mixture)” for “SGF”, “(e.g.” for “(e.g.,”
Compounds of interest (at concentration of 20 μM) were mixed with pre-warmed FaSSIF (1% pancreatin in final working solution). The solution mixture was aliquoted and incubated at 37° C. The number of aliquots required was equivalent to the number of time points (e.g. 0, 0.25, 1, 3, 6 and 24 hr). At each time point, one aliquot was taken and immediately quenched with 4 volumes of organic solvent (acetonitrile/methanol (1:1) and 0.10% formic acid, containing 1 μM internal standard). The remaining steps were the same as the generic experimental.

Data set [3] concerns the target T1, human ferroportin (Homo sapiens, UniProt Q9NP59).
T1 sequence (Q9NP59 1-571): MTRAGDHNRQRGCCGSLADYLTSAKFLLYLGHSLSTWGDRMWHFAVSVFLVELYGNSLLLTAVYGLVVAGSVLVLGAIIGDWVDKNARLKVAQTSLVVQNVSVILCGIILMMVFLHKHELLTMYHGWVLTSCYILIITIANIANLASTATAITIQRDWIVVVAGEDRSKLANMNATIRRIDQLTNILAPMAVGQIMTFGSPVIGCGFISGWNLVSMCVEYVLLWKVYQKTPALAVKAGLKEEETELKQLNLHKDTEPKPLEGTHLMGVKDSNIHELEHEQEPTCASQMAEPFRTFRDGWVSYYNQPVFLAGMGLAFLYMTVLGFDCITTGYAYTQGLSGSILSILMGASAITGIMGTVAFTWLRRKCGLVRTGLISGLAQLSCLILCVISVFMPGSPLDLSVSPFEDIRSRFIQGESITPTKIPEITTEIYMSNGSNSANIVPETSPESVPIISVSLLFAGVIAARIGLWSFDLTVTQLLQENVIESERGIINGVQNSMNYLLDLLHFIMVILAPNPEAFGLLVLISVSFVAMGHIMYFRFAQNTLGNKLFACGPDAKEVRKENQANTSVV
Kind of data set: FPN activity assay: internalization/degradation of ferroportin-GFP in stably transfected HEK293 cells. To be noted: read-out: IC50: FPN internalisation; Table 3C.

In the case of “Isovaleric acid-D-T-H-[Dpa]-P-C-I-(D)Lys-bhPhe-[Lys(Ahx-Palm)]-(D)Lys-meCys-NH2 [Compound 3]”, in data set [1], the “SGF Half life” value is reported as 660 min. The “SIF Half life” value in data set [2] is recorded as 66 min.

In the case of “Isovaleric acid-DTHFPCIKF-Lys[PEG11-Palm]-PRSK-[SAR]-CK-NH2 [Ref. Cmpd. 2]”, the “SGF Half life” value in data set [1] is recorded as 26 min. Besides, in data set [2], the “SIF Half life” value is under 15 min and the “SIF, percentage in parentheses beside half life (meaning not defined)” value is 1%. As for “Isovaleric acid-DTHFPCIKF-Lys[PEG11-Palm]-PRSKGCK-NH2 [Ref. Cmpd. 1]”, in data set [1], the “SGF Half life” value is given as under 15 min and the “SGF, percentage in parentheses beside half life (meaning not defined)” value is on record as 6%. For the same substance, in data set [2], the “SIF Half life” value was under 15 min and the “SIF, percentage in parentheses beside half life (meaning not defined)” value is recorded as 1%.

As to “[Isovaleric Acid]-D-T-H-F-P-C-I-[(D)Lys]-F-[Lys(PEG12_Palm)]-C-K-NH2 [Compound 334]”, the DC50 in data set [3] stood at 32 nM. In the case of “[Isovaleric Acid]-D-T-H-F-P-C-I-[(D)Lys]-F-[Lys(PEG12_Palm)]-K-[aMeCys]-NH2 [Compound 355]”, the DC50 in data set [3] amounted to 7.55 nM. Same read-out and setting: then “[Isovaleric Acid]-D-T-H-F-P-C-I-[Lys(IsoGlu_palm)]-F-E-P-R-S-K-G-C-K-NH2 [Compound 319]”, with 35.8 nM. Still for that read-out and setting: next, “[Isovaleric Acid]-D-T-H-F-[Npc]-C-I-[(D)Lys]-F-[Lys(PEG12_Palm)]-[(D)Lys]-C-NH2 [Compound 351]”: 13.2 nM; “[Isovaleric Acid]-D-T-H-[Dpa]-P-C-I-(D)Ala-[bhPhe]-[Lys(PEG12_Palm)]-[(D)Lys]-C-NH2 [Compound 332]”: 11 nM. With “[Isovaleric Acid]-D-T-H-[Dpa]-P-C-I-I-[bhPhe]-[Lys(PEG12 Palm)]-[(D)Lys]-C-NH2 [Compound 331]”, the DC50 in data set [3] turned out to be 24 nM. Consider “[Isovaleric Acid]-D-T-H-[Dpa]-P-C-I-[(D)Lys(Ac)]-[bhPhe]-[Lys(Ac)]-C-NH2 [Compound 325]”, for which the DC50 in data set [3] worked out at 37.8 nM. Still for that read-out and setting: next, “[Isovaleric Acid]-D-T-H-[Dpa]-P-C-I-[(D)Lys]-F-Lys(PEG12_Palm)]-[(D)Lys]-[N-MeCys]-NH2 [Compound 342]”: 21.8 nM; “[Isovaleric Acid]-D-T-H-[Dpa]-P-C-I-[(D)Lys]-F-[Lys(PEG12 Palm)]-[Dab]-C-NH2 [Compound 339]”: 22.8 nM. For the substance “[Isovaleric Acid]-D-T-H-[Dpa]-P-C-I-[(D)Lys]-F-[Lys(PEG12 Palm)]-[Dap]-[Hcy]-NH2 [Compound 335]”, the IC50 in data set [3] stood at 18 nM.

“[Isovaleric Acid]-D-T-H-[Dpa]-P-C-I-[(D)Lys]-F-[Lys(PEG12_Palm)]-C-NH2 [Compound 341]”: the DC50 in data set [3] amounted to 22 nM. On the same count and under the same terms, then “[Isovaleric Acid]-D-T-H-[Dpa]-P-C-I-[(D)Lys]-F-[Lys(PEG12_Palm)]-K-[N-MeCys]-NH2 [Compound 343]”, with 13.5 nM; and “[Isovaleric Acid]-D-T-H-[Dpa]-P-C-I-[(D)Lys]-F-[Lys(PEG12_Palm)]-[(D)Lys]-C-NH2 [Compound 337]”, with 19.5 nM; and “[Isovaleric Acid]-D-T-H-[Dpa]-P-C-I-[(D)Lys]-F-[Lys(PEG12_Palm)]-[(D)Lys]-[Pen]-NH2 [Compound 344]”, with 7.75 nM.

With “[Isovaleric Acid]-D-T-H-[Dpa]-P-C-I-[(D)Lys]-F-[Lys(PEG12_Palm)]-[Dap]-[Pen]-NH2 [Compound 336]”, the DC50 in data set [3] was 49.3 nM. On the same count and under the same terms, next, “[Isovaleric Acid]-D-T-H-[Dpa]-P-C-I-[(D)Lys]-F-[Lys(PEG12_Palm)]-[Orn]-C-NH2 [Compound 340]”: 26.9 nM; “[Isovaleric Acid]-D-T-H-[Dpa]-P-C-I-[(D)Lys]-[Dpa]-[Lys(PEG12_Palm)]-[(D)Lys]-C-NH2 [Compound 345]”: 23 nM; “[Isovaleric Acid]-D-T-H-[Dpa]-P-C-I-[(D)Lys]-[bhPhe]-K-[(D)Lys]-C-NH2 [Compound 327]”: 142 nM. The same measure, in the same setting: next, “[Isovaleric Acid]-D-T-H-[Dpa]-P-C-I-[(D)Lys]-[bhPhe]-[Lys(Ac)]-C-NH2 [Compound 326]”: 95.7 nM; “[Isovaleric Acid]-D-T-H-[Dpa]-P-C-I-[(D)Lys]-[bhPhe]-[Lys(PEG12_Palm)]-[(D)Lys]-C-NH2 [Compound 349]”: 11.2 nM; “[Isovaleric Acid]-D-T-H-[Dpa]-P-C-I-[Lys(Ahx_Palm)]-[2Pal]-C-NH2 [Compound 320]”: 9.72 nM. Consider “[Isovaleric Acid]-D-T-H-[Dpa]-P-C-I-[Lys(Ahx_Palm)]-[2Pal]-[(D)Lys]-C-NH2 [Compound 321]”, for which, in data set [3], the DC50 worked out at 21.7 nM. As to “[Isovaleric Acid]-D-T-H-[Dpa]-P-C-I-[bAla]-[bhPhe]-[(D)Lys]-C-NH2 [Compound 323]”, the DC50 in data set [3] amounted to 10.6 nM. “[Isovaleric Acid]-D-T-H-[Dpa]-P-C-I-[bhPhe]-[(D)Lys]-C-NH2 [Compound 324]”: in data set [3], the DC50 was found to be 23.3 nM. The same measure, in the same setting: then “[Isovaleric Acid]-D-T-H-[Dpa]-P-C-I-[bhPhe]-[Lys(PEG12_Palm)]-[(D)Lys]-C-NH2 [Compound 330]”, with 6.93 nM. On the same count and under the same terms, next, “[Isovaleric Acid]-D-T-H-[Dpa]-[Npc]-C-I-[(D)Lys]-F-[Lys(PEG12 Palm)]-[(D)Lys]-C-NH2 [Compound 352]”: 6.48 nM; “[Isovaleric Acid]-D-T-H-[Dpa]-[Npc]-C-I-[(D)Lys]-F-[Lys(PEG12_Palm)]-K-C-NH2 [Compound 360]”: 9.64 nM; “[Isovaleric Acid]-D-T-H-[Dpa]-[Npc]-C-I-[(D)Lys]-[2Nal]-[Lys(PEG12_Palm)]-K-C-NH2 [Compound 357]”: 10.2 nM. The same measure, in the same setting: then “[Isovaleric Acid]-D-T-H-[Dpa]-[Npc]-C-I-[(D)Lys]-[Phe(3,4-diF)]-[Lys(PEG12 Palm)]-K-C-NH2 [Compound 346]”, with 6.16 nM. On to “[Isovaleric Acid]-D-T-H-[Dpa]-[Npc]-C-I-[(D)Lys]-[Phe(4-(2-aminoethoxy)]-[Lys(PEG12 Palm)]-K-C-NH2 [Compound 358]”, for which the DC50 in data set [3] was over 3000 nM.

With “[Isovaleric Acid]-D-T-H-[Dpa]-[Npc]-C-I-[(D)Lys]-[Phe(4-CN)]-[Lys(PEG12_Palm)]-K-C-NH2 [Compound 347]”, the DC50 in data set [3] was determined as 23 nM.

“[Isovaleric Acid]-D-T-H-[Dpa]-[Npc]-C-I-[(D)Lys]-[Phe(4-COOH)]-[Lys(PEG12_Palm)]-K-C-NH2 [Compound 356]”: the DC50 in data set [3] was found to be 0.1 nM. With “[Isovaleric Acid]-D-T-H-[Dpa]-[Npc]-C-I-[(D)Lys]-[Phe(4-tBu)]-[(D)Lys]-C-[Lys(PEG12_Palm)]-NH2 [Compound 328]”, in data set [3], the DC50 is 16.5 nM. The same measure, in the same setting: next, “[Isovaleric Acid]-D-T-H-[Dpa]-[Npc]-C-I-[(D)Lys]-[Phe(4-tBu)]-[Lys(PEG12_Palm)]-K-C-NH2 [Compound 359]”: 8.57 nM. The same measure, in the same setting: next, “[Isovaleric Acid]-D-T-H-[Dpa]-[Npc]-C-I-[(D)Lys]-[aMePhe]-[Lys(PEG12 Palm)]-K-C-NH2 [Compound 348]”: 2.1 nM.
